# Laboratory results as given in patent US12478634B2, “Compositions and methods for treating muscular dystrophy and other disorders” (The Charlotte Mecklenburg Hospital Authority, priority 2016, dated 2025).
# Test system: C2C12 myotubes
# Conditions: differentiated C2C12 myotubes, 5 mM, 5 days
substance,measurement,value
^13C5-ribitol [^13C-ribitol],"levels of ^13C-ribitol-5P, CDP-^13C-ribitol and ^13C-ribitol in cells",clearly elevated levels
